Yeast mating assay B: variants of the scFv Ab-14

The target is the same throughout: PDVDLGDISGINAS, from the HR2 region of SARS-CoV-2 spike.

Each scFv is VH, the linker GGGGSGGGGSGGGGS, VL, as in the parent Ab-14, and differs from it in the CDRs of the heavy chain only.
VH: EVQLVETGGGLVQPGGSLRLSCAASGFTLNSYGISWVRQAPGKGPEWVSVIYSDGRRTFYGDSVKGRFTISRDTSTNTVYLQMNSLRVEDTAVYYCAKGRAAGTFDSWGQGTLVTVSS
VL: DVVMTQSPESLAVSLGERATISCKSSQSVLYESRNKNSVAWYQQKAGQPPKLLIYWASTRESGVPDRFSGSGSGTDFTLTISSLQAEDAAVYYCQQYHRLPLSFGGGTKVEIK

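The parent was found by panning a naive human phage display library on the peptide. This is the validation round: designs drawn from the data on random variants, tested in the same kind of assay. Several design methods are mixed in this list. The scFvs were displayed on barcoded MATa yeast, the peptide on MATalpha yeast. Mating (16 h, 30 °C) was followed by selection of diploids and sequencing of their barcodes. Read counts were normalised to the haploid input and turned into Kd by a linear fit to BCL2-family pairs of known affinity, for each replicate. The assay was run in six technical replicates.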

Changes read parent residue, position, new residue, counted from the first residue of the VH shown.
This list holds designs with at most six substitutions.
Numbers give log10(Kd / nM), so 0 is 1 nM and 3 is 1 µM. Smaller is tighter.
A mean of the replicates is given; it leaves out those without a signal.
A pair that was not seen in that replicate is written "nd"; this usually means weak binding, but a binder can also be missed.
In the paper, a design with two or fewer of six values counts as a poor binder.
Empty control strains, which show no peptide, gave a signal in 1% of pairings with all heavy chain designs; the median was 2.08 and 95% of these signals were weaker than 0.84. No background was subtracted. The control count says in how many pairings with the empty strains this scFv gave a signal.
Of ten entries with the parent sequence, four were seen in most replicates (averages 0.34 to 2.37), three in one and three in none, so single entries are noisy.
Values of this round are not directly comparable with the first-round values of the same sequences.

With S31D+F59A+S63Q+G99R+A101M the result was nd, nd, nd, nd, nd, nd (controls 0 of 18). Variant I51D+G61D+R100T+G103D showed nd, nd, nd, nd, nd, nd (controls 0 of 18). With T28M the result was 1.65, 0.02, 1.46, 1.94, 2.75, 1.45 (mean 1.55; controls 0 of 18). With T28E+G61V+R100K+A101V the result was nd, nd, nd, nd, nd, nd (controls 0 of 18). Variant S31E+G61V+S63D+A101T gave 0.27, 0.06, 0.48, 0.08, 0.12, 0.31 (mean 0.22; controls 2 of 18).

With T28D+T104W+D106N the result was nd, nd, nd, nd, 3.02, nd (controls 1 of 18). With T28S+S53A+R100K+S107K the result was nd, nd, nd, nd, nd, nd (controls 0 of 18). For T28D+R100Q+A101T+S107V, the assay gave 0.39, 0.38, 0.03, -0.09, 0.00, -0.08 (mean 0.11; controls 1 of 18). Variant T28D+A101H showed 0.41, 0.46, 0.86, 0.25, 1.44, 0.82 (mean 0.71; controls 2 of 18). Variant T28S+D62N+A102T showed nd, nd, nd, nd, nd, nd (controls 0 of 18).

With T28S+G61A+R100Q+A101T+S107K the result was 0.11, 0.09, -0.13, -0.07, -0.27, 0.16 (mean -0.02; controls 0 of 18). Variant N30D+G61I+D106E gave nd, 0.71, nd, nd, 1.53, nd (mean 1.12; controls 0 of 18). With T28E+G61A+R100K+A101T the result was 0.39, -0.03, 0.25, -0.29, -0.15, 0.55 (mean 0.12; controls 0 of 18). Variant T28S+G61Q+A101L showed 1.73, 2.10, 2.08, 2.04, nd, 2.22 (mean 2.03; controls 0 of 18). For Y60T+A101Q+G103D+D106E, the assay gave nd, nd, nd, nd, nd, nd (controls 0 of 18).

For T28S+S31E+G61A+A101T+S107K, the assay gave -0.17, -0.23, -0.13, -0.48, 0.05, -0.29 (mean -0.21; controls 0 of 18). Variant T58V+F59S+V64A+D106E+S107H gave nd, nd, nd, nd, nd, nd (controls 0 of 18). For F27V+S53R+R56M+A101D, the assay gave nd, nd, nd, nd, nd, nd (controls 0 of 18). Variant S31D+F59A+G61T+A101Q gave 0.53, 0.05, -0.22, -0.03, 0.08, 0.31 (mean 0.12; controls 0 of 18). Variant S31E+G61H+A101D gave 0.41, 0.99, 0.44, 0.56, 1.35, 1.10 (mean 0.81; controls 0 of 18).

For T28D+S63Q+R100N+A101T, the assay gave -0.11, -0.23, 0.05, 0.11, 0.02, -0.10 (mean -0.04; controls 1 of 18). Variant A102T+T104A gave nd, nd, nd, nd, nd, nd (controls 1 of 18). Variant T28A+S31Q+S53Y+D62C+T104F gave nd, nd, nd, nd, nd, nd (controls 0 of 18). For Y32G+S107V, the assay gave nd, nd, nd, nd, nd, nd (controls 1 of 18). For T28E+G61I+R100E+S107K, the assay gave 0.89, 0.44, 0.64, 0.60, 0.72, 0.49 (mean 0.63; controls 0 of 18).

Variant S31N+G61A+R100Q+A101L showed 1.75, 0.32, 0.30, -0.21, -0.16, 0.18 (mean 0.36; controls 1 of 18). Variant L29I+S53A+G61S+D106N gave nd, nd, nd, nd, 0.90, nd (controls 0 of 18). With G61S+R100V+A101E+A102G the result was 1.46, 1.02, 1.22, 1.65, 1.15, 1.00 (mean 1.25; controls 1 of 18). Variant S31M+G61S+R100T gave nd, nd, nd, nd, nd, nd (controls 0 of 18). For D62S+T104Q, the assay gave nd, nd, nd, nd, nd, nd (controls 1 of 18).

With T28D+R100A the result was 1.11, 0.53, 0.77, 0.54, 0.82, 1.09 (mean 0.81; controls 1 of 18). Variant T28Q+S31E+R100Q+S107L gave 1.33, nd, nd, 0.91, nd, nd (mean 1.12; controls 0 of 18). Variant F27E+G61S+G103A showed nd, nd, nd, nd, 1.93, nd (controls 1 of 18). For F27E+G99H+A101G, the assay gave nd, nd, nd, nd, nd, nd (controls 0 of 18). Variant S31E+R100E+A101Q showed 0.95, 1.78, 1.62, 0.47, 0.08, 1.54 (mean 1.07; controls 0 of 18).

Variant T28N+S63K+A101E gave 0.41, 0.17, 0.27, -0.01, -0.04, 0.32 (mean 0.19; controls 0 of 18). With T28S+G61A+S63R+R100E the result was 0.71, 0.85, 0.03, 0.58, 0.68, 0.23 (mean 0.51; controls 1 of 18). For L29I+S63E+F105V+S107E, the assay gave nd, nd, nd, nd, nd, nd (controls 0 of 18). With T28D+S31G+Y60A+A102V+T104W+D106N the result was nd, nd, nd, nd, nd, nd (controls 0 of 18). With S31E+S53F+A101L the result was nd, nd, nd, nd, 0.39, nd (controls 0 of 18).

With S31D+V64F+R100F the result was nd, nd, nd, nd, 2.40, nd (controls 0 of 18). Variant T58A+F59G gave 0.53, 1.33, 0.84, 0.76, 1.51, 0.73 (mean 0.95; controls 0 of 18). Variant S31E+A102G gave 0.27, 0.64, 1.13, nd, -0.36, 0.45 (mean 0.43; controls 0 of 18). Variant T28S+S31E+G61S+S63Q+A101T gave -0.23, -0.22, -0.22, -0.75, -0.29, -0.19 (mean -0.32; controls 0 of 18). With R56K+G61L the result was 2.04, nd, nd, nd, 2.22, 2.22 (mean 2.16; controls 0 of 18).

For T28S+F59A+G61Q+S63D+R100N, the assay gave nd, nd, nd, -0.40, nd, 0.35 (mean -0.02; controls 0 of 18).

A selection of 5 entries from above:

changes	replicates, log10 nM	log10 Kd (nM), mean	signal with controls
T28M	1.65, 0.02, 1.46, 1.94, 2.75, 1.45	1.55	0/18
T28N+S63K+A101E	0.41, 0.17, 0.27, -0.01, -0.04, 0.32	0.19	0/18
S31N+G61A+R100Q+A101L	1.75, 0.32, 0.30, -0.21, -0.16, 0.18	0.36	1/18
S31D+F59A+G61T+A101Q	0.53, 0.05, -0.22, -0.03, 0.08, 0.31	0.12	0/18
S31E+A102G	0.27, 0.64, 1.13, nd, -0.36, 0.45	0.43	0/18

Source: Li et al. 2023 (doi:10.1038/s41467-023-39022-2), MIT Lincoln Laboratory and A-Alpha Bio; data file from the FLAb repository.